Earlier results on one molecule are cited in patent US10292976B2, “Anti-malarial agent” (RIKEN, priority 2014, dated 2019).

The data set deals with malaria parasites. Conditions: Non-patent Document 2; cited from earlier work.

With `O=C(O)c1cccc(C(=O)O)n1` [DPA, dipicolinic acid], the “antimalarial activity ED50” value is recorded as 1 mM.
